Values of other authors in patent CN104546722A, “米铂脂质体和制法” (priority 2015, dated 2015).

System: hepatocellular carcinoma patients (肝细胞癌患者)
Details: human, in vivo

## CCCCCCCCCCCCCC(=O)[O-].CCCCCCCCCCCCCC(=O)[O-].N[C@@H]1CCCC[C@H]1N.O.[Pt+2] [米铂一水合物, (SP-4-2)-[(1R,2R)-1,2环己二氨-N,N′]二(十四酸-O)合铂一水合物]
  adverse reactions: 程度较轻,可控且在耐受范围
